Data from paper PMC4304654 (Bioorganic & medicinal chemistry, 2012).

Test: Unbound fraction in plasma by rapid equilibrium dialysis
Format: in vitro ADME
Settings: mouse, pH 7.4

Nc1scc2c(C(=O)NC3CC3)nn(-c3ccc(F)cc3)c(=O)c12 [Compound 43, 5-Amino-N-cyclopropyl-3-(4-fluorophenyl)-4-oxo-3,4-dihydrothieno[3,4-d]pyridazine-1-carboxamide]
fraction unbound at 5 h, 1 μM: 0.069 ± 0.004
